Assay results from patent US12522569B2, “Substituted benzimidazole derivative and use thereof” (Chengdu FANXI Biopharma Co., Ltd., priority 2020, dated 2026).

Amino acid sequences for entries named in this document (tags omitted). A change or cut given only in a name is not applied to a line headed by its entry. Residues count along the entry.
UniProt Q07869, 239-466 limits assumed: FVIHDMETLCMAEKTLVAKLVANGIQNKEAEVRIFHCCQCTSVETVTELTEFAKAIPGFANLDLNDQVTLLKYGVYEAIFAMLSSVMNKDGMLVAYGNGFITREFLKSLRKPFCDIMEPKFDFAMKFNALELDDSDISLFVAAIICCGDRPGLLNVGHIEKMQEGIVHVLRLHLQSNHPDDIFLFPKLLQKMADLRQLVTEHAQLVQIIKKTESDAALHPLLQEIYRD
UniProt P37231, 238-503 limits assumed: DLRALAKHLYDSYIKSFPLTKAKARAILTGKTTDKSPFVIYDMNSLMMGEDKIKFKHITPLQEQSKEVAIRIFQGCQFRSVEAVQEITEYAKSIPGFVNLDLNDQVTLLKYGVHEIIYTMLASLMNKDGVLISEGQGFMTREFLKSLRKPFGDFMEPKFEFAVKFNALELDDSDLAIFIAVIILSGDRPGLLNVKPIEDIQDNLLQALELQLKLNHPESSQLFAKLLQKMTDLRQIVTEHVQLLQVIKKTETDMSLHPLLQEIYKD
UniProt Q03181, 211-439 limits assumed: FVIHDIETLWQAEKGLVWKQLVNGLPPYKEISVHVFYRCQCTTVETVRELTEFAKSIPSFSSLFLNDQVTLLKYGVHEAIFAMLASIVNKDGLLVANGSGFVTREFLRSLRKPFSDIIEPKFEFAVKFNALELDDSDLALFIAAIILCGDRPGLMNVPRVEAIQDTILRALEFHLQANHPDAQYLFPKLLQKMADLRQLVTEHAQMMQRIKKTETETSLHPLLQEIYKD

What was measured:
hPPARα (LBD) = hPPARα (LBD) (Homo sapiens, UniProt Q07869); experiment: GAL4-hPPARα (LBD) luciferase reporter transactivation in CV-1 cells; details: read-out: PPAR activities EC50 PPARα, about 40 hours, relative to GW-590735 as 100%
hPPARγ (LBD) = hPPARγ (LBD) (Homo sapiens, UniProt P37231); experiment: GAL4-hPPARγ (LBD) luciferase reporter transactivation in CV-1 cells; details: read-out: PPAR activities EC50 PPARγ, about 40 hours, relative to Rosiglitazone as 100%
hPPARδ (LBD) = hPPARδ (LBD) (Homo sapiens, UniProt Q03181); experiment: GAL4-hPPARδ (LBD) luciferase reporter transactivation in CV-1 cells; details: for EC50: read-out: PPAR activities EC50 PPARδ, CV-1 cells, about 40 hours, relative to GW-501516 as 100%

Compound | EC50 (hPPARα (LBD)) [µM] | EC50 (hPPARγ (LBD)) [µM] | EC50 (hPPARδ (LBD)) [µM] | PPARδ activator effect (in words) (hPPARδ (LBD); summary of Table 3)
CCc1cc(COc2ccc(OC)cc2Cn2c(CC)nc3cc(Br)ccc32)ccc1OCC(=O)O | 0.376 | 13.4 | 21.1 | strong and selective PPARδ activator effect
CCc1cc(COc2ccccc2Cn2c(N)nc3cc(Br)ccc32)ccc1OCC(=O)O | 0.243 | 5.68 | 1.62 | –
